The experiment deals with PP917 (MBP-5HVZ-S3b-C8-H6). As to the kind of experiment: analytical SEC, 5HVZ dimer with smAKAP clone at 1:2 molar ratio.

B1: PP2455 (myctag-S3b-C8-smAKAP_R63E_C70S_C78G-S3b-C8-H6) (bispecific antibody)
chain: MEQKLISEEDLSGGQVQLVESGGGLVQPGGSLRLSCAASGSIENIERMHWYRQAPGKQRELVAVIDSGGTTRYADSVKGRFTISRDNAKNTVYLQMNSLKPEDTAVYYCAAVWLTNAESTQEYWGQGTQVTVSSGGGGSTVILEYAHELSQDILSDALQQWAGGGSGSQVQLVESGGGLVQPGGSLRLSCAASGSIENIERMHWYRQAPGKQRELVAVIDSGGTTRYADSVKGRFTISRDNAKNTVYLQMNSLKPEDTAVYYCAAVWLTNAESTQEYWGQGTQVTVSSHHHHHH
notes: also called R63E mutant
Consider B1, for which the binding result is given as “binds”.

B2: PP2456 (myctag-S3b-C8-smAKAP_R63E_C70S_W76S_C78G-S3b-C8-H6) (bispecific antibody)
chain: MEQKLISEEDLSGGQVQLVESGGGLVQPGGSLRLSCAASGSIENIERMHWYRQAPGKQRELVAVIDSGGTTRYADSVKGRFTISRDNAKNTVYLQMNSLKPEDTAVYYCAAVWLTNAESTQEYWGQGTQVTVSSGGGGSTVILEYAHELSQDILSDALQQSAGGGSGSQVQLVESGGGLVQPGGSLRLSCAASGSIENIERMHWYRQAPGKQRELVAVIDSGGTTRYADSVKGRFTISRDNAKNTVYLQMNSLKPEDTAVYYCAAVWLTNAESTQEYWGQGTQVTVSSHHHHHH
notes: also called pp 2456 (W76S)
B2: the binding result is reported as “binds”.
